# Assay results: article PMC6669903 (Neuron, 2019)
# By UniProt entry, the sequences of proteins in these tests, tags left out. Residues count along the entry.
# UniProt Q9UQM7, 6-274 D135N: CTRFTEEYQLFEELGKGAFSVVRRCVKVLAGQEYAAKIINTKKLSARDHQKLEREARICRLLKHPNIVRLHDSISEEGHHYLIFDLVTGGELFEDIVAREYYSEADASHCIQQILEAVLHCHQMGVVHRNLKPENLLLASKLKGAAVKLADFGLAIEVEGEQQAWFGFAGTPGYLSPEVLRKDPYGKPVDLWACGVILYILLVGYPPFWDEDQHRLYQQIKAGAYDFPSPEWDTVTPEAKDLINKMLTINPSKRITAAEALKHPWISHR
# Biological target: purified kinase domain of CaMKIIα (residues 6–274 with a kinase null D135N mutation) (Homo sapiens, UniProt Q9UQM7, D135N)
# Test: fluorescence polarization assay of Tiam1 peptide binding to CaMKII kinase domain
structure (smiles),measurement,value
"CSCC[C@H](NC(=O)[C@H](CCCNC(=N)N)NC(=O)[C@H](CO)NC(=O)[C@H](C)NC(=O)[C@H](Cc1c[nH]cn1)NC(=O)[C@H](CO)NC(=O)[C@H](CC(=O)O)NC(=O)[C@H](CC(C)C)NC(=O)[C@@H](NC(=O)[C@H](CCCNC(=N)N)NC(=O)c1ccc2c(c1)C(=O)OC21c2ccc(O)cc2Oc2cc(O)ccc21)[C@@H](C)O)C(=O)N[C@H](C(=O)N[C@@H](CCC(N)=O)C(=O)N[C@@H](CC(C)C)C(=O)N[C@@H](CCCCN)C(=O)N[C@@H](CCCCN)C(=O)N[C@@H](CCC(N)=O)C(=O)N[C@@H](C)C(=O)N[C@@H](C)C(N)=O)[C@@H](C)O [fluorescently labelled Tiam1 peptide, fluorescein-RTLDSHASRMTQLKKQAA-amide]",Kd,8.1 ± 1.7 µM
